The source of these data is PubChem BioAssay AID1508602 (The Scripps Research Institute Molecular Screening Center, 2020).

By UniProt entry, the sequences of proteins in these tests, tags left out.
UniProt Q8TDV0, whole entry: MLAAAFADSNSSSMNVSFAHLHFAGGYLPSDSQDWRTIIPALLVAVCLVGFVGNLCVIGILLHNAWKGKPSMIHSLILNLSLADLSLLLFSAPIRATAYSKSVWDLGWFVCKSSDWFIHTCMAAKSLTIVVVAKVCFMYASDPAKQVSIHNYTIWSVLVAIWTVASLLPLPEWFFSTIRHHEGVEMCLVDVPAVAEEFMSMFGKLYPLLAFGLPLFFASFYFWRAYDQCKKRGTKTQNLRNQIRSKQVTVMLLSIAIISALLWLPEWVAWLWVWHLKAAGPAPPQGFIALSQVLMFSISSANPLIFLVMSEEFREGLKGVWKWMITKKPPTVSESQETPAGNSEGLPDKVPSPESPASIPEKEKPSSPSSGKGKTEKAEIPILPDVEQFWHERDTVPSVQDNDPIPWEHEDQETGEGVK

The list shows a part of the results, in another mix than the full data. Some results for these compounds are left out of this collection, so the calls shown say nothing about other tests. Calls of active or inactive are those of the source. Rule as the data show it: active = activation above about 4.9%; inactive = the rest.

The target of this assay is G-protein coupled receptor 151 (Homo sapiens) (UniProt Q8TDV0). The assay can be described thus: activates the human receptor GPR151, primary screen, cell-based, PathHunter beta-arrestin, luminescence (AID 1508602).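 Also: 0% = median of compound wells and 100% = cells with positive control.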 The conditions noted are these: PathHunter beta-arrestin GPR151 cells, at 11.2 µM, active compounds read high.
Take `COc1cc(SC)ccc1C(=O)NCC1(N(C)C)CCCCC1`: the activation was inactive: -0.387%.

Turning to `CN1CCCC(COC(=O)C(O)(c2ccccc2)c2ccccc2)C1` (stereo not given), the activation was inactive: 3.78%.

For `O=C(NCC1(N2CCOCC2)CCCCC1)c1cnc(Cl)c(Cl)c1`, the activation was inactive: 1.17%.

Take `CC(C)N(CCOC(=O)C(O)(c1ccccc1)c1ccccc1)C(C)C`: the activation is inactive: 0.279%.

As for `COc1ccc(C(=O)NCC2(N(C)C)CCCCC2)cc1`, the activation is inactive: -1.23%.

Regarding `CN(C)c1ccc(C(=O)NCC2(N(C)C)CCCCC2)cc1`, the activation is inactive: 0.198%.

As for `CN(C)C1CCCC1OC(=O)C(O)(c1ccccc1)c1ccccc1` (stereo not given), the activation is inactive: 1.62%.

In the case of `CC(CCN(C)C)OC(=O)C(O)(c1ccccc1)c1ccccc1` (stereo not given), the activation is inactive: -0.208%.

For the compound `CN(C)C1(CNC(=O)c2n[nH]c3ccccc23)CCCCC1`, the activation was inactive: -0.0286%.

`COc1cccc(C(=O)NCC2(N3CCCCC3)CCCCC2)c1`: the activation is inactive: -1.33%.

Take `COc1ccc(Cl)cc1C(=O)NCC1(N(C)C)CCCCC1`: the activation is inactive: -1.18%.

On to `CN1C2CCC1CC(OC(=O)C(O)(c1ccccc1)c1ccccc1)C2` (stereo not given), for which the activation is inactive: 0.882%.

For the compound `CC(C)Oc1ccc(C(=O)NCC2(N(C)C)CCCCC2)cc1`, the activation is inactive: -1.11%.

`CN(C)c1cccc(C(=O)NCC2(N(C)C)CCCCC2)c1`: the activation is inactive: -0.869%.

Regarding `CN(C)C1(CNC(=O)c2c(F)cccc2F)CCCCC1`, the activation is inactive: 0.0053%.
